Measurements reported in paper PMC5454392, “Selective BET bromodomain inhibition as an antifungal therapeutic strategy” (Nature Communications, 2017).

The chains behind the UniProt entries cited, without tags or fusion partners. Residues count along the entry.
UniProt P51532, 1453-1564 limits assumed: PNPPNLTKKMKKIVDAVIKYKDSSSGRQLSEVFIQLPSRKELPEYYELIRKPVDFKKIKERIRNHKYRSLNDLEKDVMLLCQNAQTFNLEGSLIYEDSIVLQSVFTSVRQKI

Target: SMARCA4 BD (Homo sapiens, UniProt P51532)
Assay: biochemical
Conditions: read-out: inhibition in BROMOscan
Protocol: The liganded beads were blocked with excess biotin and washed with blocking buffer (SeaBlock (Pierce), 1% BSA, 0.05% Tween 20, 1 mM DTT) to remove unbound ligand and to reduce non-specific phage binding.

Structure (SMILES): O=C1c2ccccc2Sc2cc(-c3noc(-c4cnccn4)n3)ccc2N1C1CC1 [Compound 1]
- inhibition at 10 µM: ~65%
